# Earlier results in US11136352B2, “Immunotherapy against several tumors including neuronal and brain tumors” (IMMATICS BIOTECHNOLOGIES GMBH, priority 2008, dated 2021).
# Molecular target: HLA-A*0201 (Homo sapiens, UniProt P04439, /I218V/L300P/L318F/N151K/N90K/P208A/P217A/Q86G/Q94H/R138H/R169H/T345S)
# Details: known binder; cited from earlier work
sequence,measurement,value
FLPSDFFPSV [HBV-001],Binding to A*02 (positive control),strong A*02 binder
